Laboratory results reported in article PMC7573564, “The Sensing Liver: Localization and Ligands for Hepatic Murine Olfactory and Taste Receptors” (Frontiers in Physiology, 2020).

Sequences of proteins named here, by UniProt entry; tags and fusion partners are left off.
UniProt Q8VGU7, entry or part of it: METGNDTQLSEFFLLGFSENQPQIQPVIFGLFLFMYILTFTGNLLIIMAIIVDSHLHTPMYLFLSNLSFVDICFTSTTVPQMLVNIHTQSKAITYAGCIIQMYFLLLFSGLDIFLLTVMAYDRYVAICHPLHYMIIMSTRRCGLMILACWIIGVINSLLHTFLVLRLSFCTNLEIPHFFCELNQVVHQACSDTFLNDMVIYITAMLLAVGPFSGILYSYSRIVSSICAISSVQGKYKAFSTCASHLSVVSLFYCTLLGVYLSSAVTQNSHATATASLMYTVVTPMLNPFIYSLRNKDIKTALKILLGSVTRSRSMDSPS

Assays:
CYP2A6 = test system: CYP2A6; parameters: method as in Gyoubu and Miyazawa, 2007; Miyazawa and Gyoubu, 2007; settings: ref Gyoubu and Miyazawa, 2007; cited from earlier work
Olfr57 = Olfr57 (Mus musculus, UniProt Q8VGU7); test: cAMP-dependent dual luciferase reporter assay, Olfr57 expressed in HEK293T cells; type: cell-based; settings: HEK293T cells expressing Olfr57, Firefly:Renilla ratio, 4 h, dose response of at least 6 concentrations; read-out: EC50 for activation of Olfr57
Excerpt: For ORs whose trafficking conditions could be established as described above, an unbiased ligand screen using a dual-luciferase reporter assay (Promega) was used to identify potential ligands. Briefly, ORs were transiently transfected (Lipofectamine 2000, Invitrogen) in triplicate into HEK293T cells along with constructs encoding for CREB-dependent luciferase (Firefly) and a constitutively expressed luciferase (Renilla), along with any accessory proteins previously established to be required for effective cell-surface trafficking. Additional surface labeling experiments were performed with the Firefly and Renilla constructs to ensure effective trafficking was not lost under these transfection conditions. OR activation leads to a rise in cAMP which drives an increase in Firefly luciferase expression. Firefly activity is normalized to the activity of the Renilla luciferase to control for variation in cell number and transfection efficiency. Data were collected using a FLUOstar Omega automated plate reader (BMG LabTech, Cary, NC, United States). Cells were allowed to incubate for at least 30 min in CD293 minimal media, and were then bathed with potential odorants diluted in minimal media for 4 h before measuring Firefly and Renilla-derived luminescence. […] A significant rise in Firefly:Renilla over baseline was determined by multiple T-Tests ([…] deemed significant).

Question: Which “metabolized in the liver by microsomal enzyme CYP2A6” value (CYP2A6) does the source give for (1R)-(+)-camphor here?
Answer: metabolized

Question: What about the EC50 (Olfr57) of the same substance?
Answer: 680 µM
